Experimental data from ChEMBL document CHEMBL6096706, “Discovery of WDR5-MLL1 and HDAC Dual-Target Inhibitors for the Treatment of Acute Myeloid Leukemia” (J Med Chem, 2025).
The source made the active and inactive calls.

The chains behind the UniProt entries cited, without tags or fusion partners.
UniProt Q03164, whole entry, looked up: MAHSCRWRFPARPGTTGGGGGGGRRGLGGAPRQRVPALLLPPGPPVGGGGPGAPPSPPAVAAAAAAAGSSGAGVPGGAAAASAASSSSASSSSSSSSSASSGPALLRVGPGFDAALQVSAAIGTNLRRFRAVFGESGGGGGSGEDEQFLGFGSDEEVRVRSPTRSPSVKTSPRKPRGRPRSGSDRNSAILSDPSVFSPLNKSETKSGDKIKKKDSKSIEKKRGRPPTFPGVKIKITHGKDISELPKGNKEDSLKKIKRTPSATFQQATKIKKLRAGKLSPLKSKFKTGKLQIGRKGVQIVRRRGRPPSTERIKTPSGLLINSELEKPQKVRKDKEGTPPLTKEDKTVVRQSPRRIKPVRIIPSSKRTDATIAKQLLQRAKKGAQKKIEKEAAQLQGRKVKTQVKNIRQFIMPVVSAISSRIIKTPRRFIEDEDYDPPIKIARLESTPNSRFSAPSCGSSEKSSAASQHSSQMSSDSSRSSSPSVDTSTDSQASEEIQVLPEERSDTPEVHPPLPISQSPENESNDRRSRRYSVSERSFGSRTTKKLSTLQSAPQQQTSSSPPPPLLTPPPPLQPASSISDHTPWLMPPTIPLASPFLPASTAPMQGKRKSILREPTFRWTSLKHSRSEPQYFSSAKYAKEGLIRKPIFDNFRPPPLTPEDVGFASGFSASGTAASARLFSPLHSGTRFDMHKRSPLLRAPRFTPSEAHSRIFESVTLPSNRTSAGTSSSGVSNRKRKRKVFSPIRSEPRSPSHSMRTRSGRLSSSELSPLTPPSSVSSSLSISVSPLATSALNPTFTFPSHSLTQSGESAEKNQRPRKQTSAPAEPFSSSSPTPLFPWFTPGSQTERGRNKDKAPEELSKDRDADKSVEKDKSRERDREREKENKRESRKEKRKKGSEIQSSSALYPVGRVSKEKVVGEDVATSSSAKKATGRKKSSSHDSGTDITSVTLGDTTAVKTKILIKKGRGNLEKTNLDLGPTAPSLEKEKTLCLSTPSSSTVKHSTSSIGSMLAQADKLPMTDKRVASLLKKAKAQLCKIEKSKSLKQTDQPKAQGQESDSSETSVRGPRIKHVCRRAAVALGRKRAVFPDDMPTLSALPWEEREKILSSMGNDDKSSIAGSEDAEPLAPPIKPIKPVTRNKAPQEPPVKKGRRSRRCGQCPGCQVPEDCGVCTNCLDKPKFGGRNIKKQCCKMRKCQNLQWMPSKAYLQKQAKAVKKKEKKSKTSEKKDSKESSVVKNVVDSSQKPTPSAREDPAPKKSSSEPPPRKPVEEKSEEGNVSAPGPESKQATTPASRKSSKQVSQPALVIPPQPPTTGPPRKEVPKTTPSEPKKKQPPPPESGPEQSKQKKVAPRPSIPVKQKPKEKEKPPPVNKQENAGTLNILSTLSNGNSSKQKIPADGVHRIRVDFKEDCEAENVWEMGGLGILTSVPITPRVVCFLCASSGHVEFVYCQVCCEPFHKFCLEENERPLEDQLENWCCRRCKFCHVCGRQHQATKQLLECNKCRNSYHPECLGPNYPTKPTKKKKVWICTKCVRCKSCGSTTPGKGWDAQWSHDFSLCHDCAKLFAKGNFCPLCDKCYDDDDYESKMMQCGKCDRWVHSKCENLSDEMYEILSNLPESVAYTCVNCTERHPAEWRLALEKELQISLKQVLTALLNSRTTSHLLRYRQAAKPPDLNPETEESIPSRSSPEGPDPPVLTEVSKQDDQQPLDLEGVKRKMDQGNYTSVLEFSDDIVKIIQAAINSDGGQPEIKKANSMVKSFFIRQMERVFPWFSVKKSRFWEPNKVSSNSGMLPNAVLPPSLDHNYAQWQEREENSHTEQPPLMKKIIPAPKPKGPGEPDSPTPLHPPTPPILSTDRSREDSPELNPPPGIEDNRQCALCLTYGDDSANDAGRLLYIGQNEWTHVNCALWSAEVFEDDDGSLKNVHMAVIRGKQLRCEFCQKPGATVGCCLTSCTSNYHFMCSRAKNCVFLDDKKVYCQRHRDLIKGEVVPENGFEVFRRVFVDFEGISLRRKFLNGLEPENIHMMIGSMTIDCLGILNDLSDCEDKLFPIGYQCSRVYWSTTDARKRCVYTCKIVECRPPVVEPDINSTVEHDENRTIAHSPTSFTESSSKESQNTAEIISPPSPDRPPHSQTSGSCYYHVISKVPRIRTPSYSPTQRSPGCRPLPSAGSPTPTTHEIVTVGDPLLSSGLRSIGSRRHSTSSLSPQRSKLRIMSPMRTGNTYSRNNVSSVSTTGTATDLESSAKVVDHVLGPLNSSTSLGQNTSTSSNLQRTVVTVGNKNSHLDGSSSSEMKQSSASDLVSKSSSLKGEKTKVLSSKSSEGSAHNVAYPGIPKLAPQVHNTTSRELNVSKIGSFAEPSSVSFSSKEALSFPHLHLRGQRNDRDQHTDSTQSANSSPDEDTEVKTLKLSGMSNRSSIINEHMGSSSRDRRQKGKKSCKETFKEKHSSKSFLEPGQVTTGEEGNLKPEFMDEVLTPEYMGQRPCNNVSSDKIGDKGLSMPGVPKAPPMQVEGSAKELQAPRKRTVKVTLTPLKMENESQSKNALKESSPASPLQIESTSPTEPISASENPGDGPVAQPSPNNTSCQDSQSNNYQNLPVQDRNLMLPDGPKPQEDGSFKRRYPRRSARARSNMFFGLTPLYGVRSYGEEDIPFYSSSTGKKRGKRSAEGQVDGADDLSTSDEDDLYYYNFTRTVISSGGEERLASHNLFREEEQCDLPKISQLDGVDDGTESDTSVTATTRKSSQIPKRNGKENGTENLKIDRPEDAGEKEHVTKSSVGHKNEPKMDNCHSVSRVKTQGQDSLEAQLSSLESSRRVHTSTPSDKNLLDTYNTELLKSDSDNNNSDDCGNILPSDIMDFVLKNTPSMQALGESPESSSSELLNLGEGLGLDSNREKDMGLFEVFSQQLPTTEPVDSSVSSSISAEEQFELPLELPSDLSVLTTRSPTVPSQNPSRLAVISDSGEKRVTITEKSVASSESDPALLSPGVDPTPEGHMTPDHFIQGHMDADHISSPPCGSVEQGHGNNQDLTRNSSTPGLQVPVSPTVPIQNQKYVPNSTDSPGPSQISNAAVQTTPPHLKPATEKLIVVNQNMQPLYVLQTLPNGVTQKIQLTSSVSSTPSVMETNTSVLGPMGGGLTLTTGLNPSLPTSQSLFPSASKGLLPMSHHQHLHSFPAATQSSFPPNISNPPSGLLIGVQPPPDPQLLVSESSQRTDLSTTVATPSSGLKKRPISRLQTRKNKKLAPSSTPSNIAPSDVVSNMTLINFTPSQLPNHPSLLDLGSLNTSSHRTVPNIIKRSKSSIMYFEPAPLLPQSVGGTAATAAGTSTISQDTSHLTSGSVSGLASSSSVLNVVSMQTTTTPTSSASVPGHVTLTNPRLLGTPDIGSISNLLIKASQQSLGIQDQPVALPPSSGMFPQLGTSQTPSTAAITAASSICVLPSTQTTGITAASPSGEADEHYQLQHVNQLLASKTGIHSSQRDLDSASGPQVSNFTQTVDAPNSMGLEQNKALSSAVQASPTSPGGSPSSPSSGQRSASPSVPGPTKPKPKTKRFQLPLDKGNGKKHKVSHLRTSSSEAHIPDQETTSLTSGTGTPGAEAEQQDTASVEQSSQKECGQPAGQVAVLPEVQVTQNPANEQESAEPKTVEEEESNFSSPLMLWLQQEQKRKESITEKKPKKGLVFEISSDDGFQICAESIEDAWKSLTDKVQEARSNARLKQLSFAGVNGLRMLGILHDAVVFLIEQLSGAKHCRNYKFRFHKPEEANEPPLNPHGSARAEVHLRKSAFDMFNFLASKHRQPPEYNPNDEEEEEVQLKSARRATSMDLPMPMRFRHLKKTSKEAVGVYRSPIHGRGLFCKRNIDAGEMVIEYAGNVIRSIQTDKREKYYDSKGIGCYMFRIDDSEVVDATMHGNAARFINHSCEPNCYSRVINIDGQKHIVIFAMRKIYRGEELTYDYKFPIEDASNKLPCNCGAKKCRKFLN

How the values were obtained:
MV4-11 [1] = assay: Downregulation of SULT1A3 mRNA expression in human MV4-11 cells by RT-PCR analysis; type: functional, cell-based
[2] = molecular target: T1, Histone-lysine N-methyltransferase 2A/WDR5 (Homo sapiens) (UniProt P61964+Q03164); assay: Inhibition of MLL1/WDR5 protein-protein interaction in human MV4-11 cells assessed as decrease in H3K4me1 level incubated for 48 hrs by Western blot analysis; type: cell-based
MV4-11 [3] = assay: Antitumor activity against human MV4-11 cells xenografted in mouse assessed as increase in number of TUNEL-positive cells in tumor at 10 to 30 mg/kg, ip administered daily for 17 days by Western blot analysis; type: functional, organism-based; details: dose 10-30 mg/kg, time 17.0 day
MV4-11 [4] = assay: Antitumor activity against human MV4-11 cells xenografted in ip dosed mouse assessed as increase in AC-H4 level administered daily for 17 days by Western blot analysis; type: functional, organism-based; details: dose 10-30 mg/kg, time 17.0 day
[5] = molecular target: T1, Histone-lysine N-methyltransferase 2A/WDR5 (Homo sapiens); assay: Inhibition of MLL1/WDR5 protein-protein interaction in human MV4-11 cells assessed as decrease in H3K4me2 level incubated for 48 hrs by Western blot analysis; type: cell-based
[6] = molecular target: T1, Histone-lysine N-methyltransferase 2A/WDR5 (Homo sapiens); assay: Inhibition of MLL1/WDR5 protein-protein interaction in human MV4-11 cells assessed as decrease in H3K4me3 level incubated for 48 hrs by Western blot analysis; type: cell-based
MV4-11 [7] = assay: Antitumor activity against human MV4-11 cells xenografted in ip dosed mouse assessed as increase in AC-H3 level administered daily for 17 days by Western blot analysis; type: functional, organism-based; details: dose 10-30 mg/kg, time 17.0 day
MV4-11 [8] = assay: Antitumor activity against human MV4-11 cells xenografted in mouse assessed as decrease in H3K4me level at 10 to 30 mg/kg, ip administered daily for 17 days by Western blot analysis; type: functional, organism-based; details: dose 10-30 mg/kg, time 17.0 day

Cc1c(F)c(N)cc(C(=O)Nc2cc(-c3ccc(C(=O)NCc4ccc(/C=C/C(=O)NO)cc4)cc3)ccc2N2CCN(C)CC2)c1Cl
active: Activity (MV4-11 [1]) | inhibition [2] | Activity (MV4-11 [3]) | Activity (MV4-11 [4]) Dose-dependent-effect | inhibition [5] | inhibition [6] | Activity (MV4-11 [7]) Dose-dependent-effect | Activity (MV4-11 [8])
